Test system: ERα and ERβ
Experiment: Average of specific activities over binding and reporter gene assays
Design: species or system human
Settings: average of the five specific activities, BPE-Br = 100

Structure (SMILES): Oc1ccc(C(c2ccc(O)cc2)C(Br)(Br)Br)cc1 [BPE-Br]
- Average receptor activity (specific activity): 100

Structure (SMILES): Oc1ccc(C(c2ccc(O)cc2)C(F)(F)F)cc1 [BPE-F]
- Average receptor activity (specific activity): 10
